In ChEMBL document CHEMBL5523714, “Design, synthesis of ceramide 1-phosphate analogs and their affinity for cytosolic phospholipase A2 as evidenced by surface plasmon resonance” (Bioorg Med Chem Lett, 2024):

Target: T1, Cytosolic phospholipase A2 (Homo sapiens) (UniProt P47712)
T1 sequence (whole entry): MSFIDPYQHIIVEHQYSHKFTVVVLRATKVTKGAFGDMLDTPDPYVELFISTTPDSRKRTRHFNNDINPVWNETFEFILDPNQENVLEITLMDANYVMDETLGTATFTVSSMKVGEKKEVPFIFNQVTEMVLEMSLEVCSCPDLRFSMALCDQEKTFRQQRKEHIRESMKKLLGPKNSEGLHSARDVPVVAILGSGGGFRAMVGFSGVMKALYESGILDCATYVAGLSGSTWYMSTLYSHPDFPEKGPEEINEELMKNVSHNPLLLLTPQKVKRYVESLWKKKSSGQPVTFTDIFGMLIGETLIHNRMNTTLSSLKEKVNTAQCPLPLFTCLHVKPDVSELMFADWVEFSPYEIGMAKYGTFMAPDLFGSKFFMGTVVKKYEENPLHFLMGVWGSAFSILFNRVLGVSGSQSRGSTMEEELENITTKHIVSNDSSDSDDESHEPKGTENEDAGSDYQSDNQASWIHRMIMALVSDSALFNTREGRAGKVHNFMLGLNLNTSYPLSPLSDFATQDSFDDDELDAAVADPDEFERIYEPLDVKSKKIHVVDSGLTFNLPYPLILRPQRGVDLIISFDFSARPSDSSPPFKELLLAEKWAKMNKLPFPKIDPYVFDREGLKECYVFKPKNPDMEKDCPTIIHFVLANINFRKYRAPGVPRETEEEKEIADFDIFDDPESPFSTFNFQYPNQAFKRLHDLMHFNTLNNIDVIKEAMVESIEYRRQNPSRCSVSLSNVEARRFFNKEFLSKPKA
Conditions: filed as activator

CCCCCCCCCCCCC/C=C/[C@@H](O)[C@H](COP(=O)(O)OC)NC(=O)CCCCCCCCCCCCCCC
Ka: 0.6 10^6/M/s
